Assay results published in US20250195530A1, “POLQ INHIBITORS” (ASTRAZENECA AB, priority 2022, published 2025).

By UniProt entry, the sequences of proteins in these tests, tags left out. Residues count along the entry.
UniProt O75417, 1780-2590: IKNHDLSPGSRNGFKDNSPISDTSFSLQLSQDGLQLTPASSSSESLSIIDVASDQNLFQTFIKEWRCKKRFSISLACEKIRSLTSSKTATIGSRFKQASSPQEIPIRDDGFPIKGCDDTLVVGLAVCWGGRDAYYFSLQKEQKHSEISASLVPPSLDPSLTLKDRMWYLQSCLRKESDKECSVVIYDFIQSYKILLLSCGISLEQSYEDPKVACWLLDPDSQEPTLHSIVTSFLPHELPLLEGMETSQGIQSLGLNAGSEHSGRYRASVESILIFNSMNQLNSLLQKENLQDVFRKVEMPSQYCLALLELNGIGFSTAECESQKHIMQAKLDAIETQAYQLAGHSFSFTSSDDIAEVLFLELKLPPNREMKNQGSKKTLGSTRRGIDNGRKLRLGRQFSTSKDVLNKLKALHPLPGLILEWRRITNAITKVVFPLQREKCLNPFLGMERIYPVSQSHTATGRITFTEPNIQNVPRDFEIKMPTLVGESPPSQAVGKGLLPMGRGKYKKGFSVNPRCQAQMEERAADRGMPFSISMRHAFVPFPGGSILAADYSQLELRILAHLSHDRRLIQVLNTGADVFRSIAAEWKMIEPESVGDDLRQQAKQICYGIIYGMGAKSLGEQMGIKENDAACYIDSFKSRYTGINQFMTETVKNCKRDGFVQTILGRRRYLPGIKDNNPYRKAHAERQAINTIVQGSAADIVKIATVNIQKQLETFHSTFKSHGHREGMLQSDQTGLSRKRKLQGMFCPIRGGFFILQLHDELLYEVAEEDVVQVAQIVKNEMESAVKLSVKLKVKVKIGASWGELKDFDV

Biological target: isolated polymerase domain (I1780-V2590) of DNA polymerase theta (Polθ) (Homo sapiens (Human), UniProt O75417)
Test: biochemical

How did the IC50 turn out when `C[C@@H](CCOc1ccc(-c2nc3c(OC4(C)CC4)ncnc3n2Cc2cccc(Cl)c2)c(Cl)c1)C(=O)NCC(=O)O` [Example U86, (S)-(4-(3-chloro-4-(9-(3-chlorobenzyl)-6-(1-methylcyclopropoxy)-9H-purin-8-yl)phenoxy)-2-methylbutanoyl)glycine] was run?
Its IC50 is 3.16 nM.

With `C[C@@H](OCCOc1ccc(-c2nc3c(OC4(C)CC4)ncnc3n2Cc2cccc(Cl)c2)c(Cl)c1)C(=O)O` [Example T306, (R)-2-(2-(3-chloro-4-(9-(3-chlorobenzyl)-6-(1-methylcyclopropoxy)-9H-purin-8-yl)phenoxy)ethoxy)propanoic acid] as the compound, how does the IC50 read?
Its IC50 is 3.16 nM.

How did the IC50 turn out when `Cc1ccccc1Cn1c(-c2ccc(OCCC(=O)O)cc2Cl)nc2c(OC3(C)CC3)ncnc21` [Example T168, 3-(3-chloro-4-(9-(2-methylbenzyl)-6-(1-methylcyclopropoxy)-9H-purin-8-yl)phenoxy)propanoic acid] was run?
Its IC50 is 12.6 nM.

How did the IC50 turn out when `CNC(=O)c1cccc(-c2nc3c(OC4(C)CC4)ncnc3n2Cc2cc(C)ccn2)c1Cl` [Example T55, 2-chloro-N-methyl-3-(6-(1-methylcyclopropoxy)-9-((4-methylpyridin-2-yl)methyl)-9H-purin-8-yl)benzamide] was run?
Its IC50 is 20 nM.

With `CC(CCOc1ccc(-c2nc3c(OC4(C)CC4)ncnc3n2Cc2cccc(C(C)(F)F)c2)c(Cl)c1)C(=O)O` (single isomer, unassigned) [Example T546, 4-(3-chloro-4-(9-(3-(1,1-difluoroethyl)benzyl)-6-(1-methylcyclopropoxy)-9H-purin-8-yl)phenoxy)-2-methylbutanoic acid] as the compound, how does the IC50 read?
The IC50 was 5.01 nM.

With `Cc1cc(Cn2c(-c3ccc(CC(N)=O)cc3Cl)nc3c(OC4(C)CC4)ncnc32)ccn1` [Example T58, 2-(3-chloro-4-(6-(1-methylcyclopropoxy)-9-((2-methylpyridin-4-yl)methyl)-9H-purin-8-yl)phenyl)acetamide] as the compound, how does the IC50 read?
Its IC50 is 158 nM.

With `C[C@H](CCOc1cccc(-c2nc3c(OC4(C)CC4)ncnc3n2Cc2cc(Cl)ccc2F)c1Cl)C(=O)O` [Example U26, (R)-4-(2-chloro-3-(9-(5-chloro-2-fluorobenzyl)-6-(1-methylcyclopropoxy)-9H-purin-8-yl)phenoxy)-2-methylbutanoic acid] as the compound, how does the IC50 read?
The IC50 was 7.94 nM.

For `Cc1ccnc(Cn2c(-c3ccc(C(=O)N4CCC[C@H]4CO)cc3Cl)nc3c(OC4(C)CC4)ncnc32)c1` [Example T466, (S)-(3-chloro-4-(6-(1-methylcyclopropoxy)-9-((4-methylpyridin-2-yl)methyl)-9H-purin-8-yl)phenyl)(2-(hydroxymethyl)pyrrolidin-1-yl)methanone], which IC50 is on record?
The IC50 was 39.8 nM.

How did the IC50 turn out when `Cc1ccnc(Cn2c(-c3ccc(OCC(=O)N(C)CCC#N)cc3Cl)nc3c(OC4(C)CC4)ncnc32)c1` [Example T430, 2-(3-chloro-4-(6-(1-methylcyclopropoxy)-9-((4-methylpyridin-2-yl)methyl)-9H-purin-8-yl)phenoxy)-N-(2-cyanoethyl)-N-methylacetamide] was run?
The IC50 was 15.8 nM.

How did the IC50 turn out when `Cc1ccnc(Cn2c(-c3ccc(C(=O)NC4CC4)cc3Cl)nc3c(OC4(C)CC4)ncnc32)c1` [Example T170, 3-chloro-N-cyclopropyl-4-(6-(1-methylcyclopropoxy)-9-((4-methylpyridin-2-yl)methyl)-9H-purin-8-yl)benzamide] was run?
The IC50 was 15.8 nM.

Which IC50 does the source give for `CC1(Oc2ncnc3c2nc(-c2cccc(/C=C/C(=O)O)c2Cl)n3Cc2cccc(Cl)c2)CC1` [Example T80, (E)-3-(2-chloro-3-(9-(3-chlorobenzyl)-6-(1-methylcyclopropoxy)-9H-purin-8-yl)phenyl)acrylic acid] here?
Its IC50 is 7.94 nM.

Which IC50 does the source give for `Cc1ccnc(Cn2c(-c3ccc(C(=O)N[C@H](C)CCO)cc3Cl)nc3c(OC4(C)CC4)ncnc32)c1` [Example T364, (R)-3-chloro-N-(4-hydroxybutan-2-yl)-4-(6-(1-methylcyclopropoxy)-9-((4-methylpyridin-2-yl)methyl)-9H-purin-8-yl)benzamide] here?
The IC50 was 15.8 nM.

`CC(=O)N1CCC(COc2ccc(-c3nc4c(OC5(C)CC5)ncnc4n3Cc3ccccc3)c(Cl)c2)CC1` [Example D1, 1-(4-((4-(9-benzyl-6-(1-methylcyclopropoxy)-9H-purin-8-yl)-3-chlorophenoxy)methyl)piperidin-1-yl)ethan-1-one] was tested. Which IC50 did it give?
The IC50 was 2 nM.

`Cc1ccnc(Cn2c(-c3ccc(OCC(C)(C)O)cc3Cl)nc3c(OC4(C)CC4)ncnc32)c1` [Example 45, 1-(3-Chloro-4-(6-(1-methylcyclopropoxy)-9-((4-methylpyridin-2-yl)methyl)-9H-purin-8-yl)phenoxy)-2-methylpropan-2-ol] was tested. Which IC50 did it give?
Its IC50 is 6.31 nM.

Which IC50 does the source give for `CC[C@H](CO)NC(=O)c1ccc(-c2nc3c(OC4(C)CC4)ncnc3n2Cc2cc(C)ccn2)c(Cl)c1` [Example T361, (R)-3-chloro-N-(1-hydroxybutan-2-yl)-4-(6-(1-methylcyclopropoxy)-9-((4-methylpyridin-2-yl)methyl)-9H-purin-8-yl)benzamide] here?
Its IC50 is 12.6 nM.

With `Cc1ccnc(Cn2c(-c3ccc(OCCCN4CC[C@@H](O)C4)cc3Cl)nc3c(OC4(C)CC4)ncnc32)c1` [Example T592, (R)-1-(3-(3-chloro-4-(6-(1-methylcyclopropoxy)-9-((4-methylpyridin-2-yl)methyl)-9H-purin-8-yl)phenoxy)propyl)pyrrolidin-3-ol] as the compound, how does the IC50 read?
Its IC50 is 5.01 nM.

`Cc1ccnc(Cn2c(-c3ccc(N4CCC5NCCC54)cc3Cl)nc3c(OC4(C)CC4)ncnc32)c1` (stereo not shown) [Example T492, 8-(2-chloro-4-(hexahydropyrrolo[3,2-b]pyrrol-1(2H)-yl)phenyl)-6-(1-methylcyclopropoxy)-9-((4-methylpyridin-2-yl)methyl)-9H-purine] was tested. Which IC50 did it give?
The IC50 was 6.31 nM.

Which IC50 does the source give for `CC1(Oc2ncnc3c2nc(-c2cccc(OCCCC(=O)NS(C)(=O)=O)c2Cl)n3Cc2cccc(Cl)c2)CC1` [Example T325, 4-(2-chloro-3-(9-(3-chlorobenzyl)-6-(1-methylcyclopropoxy)-9H-purin-8-yl)phenoxy)-N-(methylsulfonyl)butanamide] here?
Its IC50 is 5.01 nM.

For `CC1(Oc2ncnc3c2nc(-c2ccc(OCCCN4CC(O)C4)cc2Cl)n3Cc2cc(C(F)(F)F)ccn2)CC1` [Example T425, 1-(3-(3-chloro-4-(6-(1-methylcyclopropoxy)-9-((4-(trifluoromethyl)pyridin-2-yl)methyl)-9H-purin-8-yl)phenoxy)propyl)azetidin-3-ol], which IC50 is on record?
Its IC50 is 5.01 nM.

Which IC50 does the source give for `Cc1ccnc(Cn2c(-c3ccc(OCC(=O)NC4CC4)cc3Cl)nc3c(OC4(C)CC4)ncnc32)c1` [Example T318, 2-(3-chloro-4-(6-(1-methylcyclopropoxy)-9-((4-methylpyridin-2-yl)methyl)-9H-purin-8-yl)phenoxy)-N-cyclopropylacetamide] here?
Its IC50 is 10 nM.

For `CC(CCOc1ccc(-c2nc3c(OC4(C)CC4)ncnc3n2Cc2cccc(F)c2)c(Cl)c1)C(=O)O` (racemic) [Example U6, 4-(3-chloro-4-(9-(3-fluorobenzyl)-6-(1-methylcyclopropoxy)-9H-purin-8-yl)phenoxy)-2-methylbutanoic acid], which IC50 is on record?
The IC50 was 6.31 nM.

`Cc1ccnc(Cn2c(-c3ccc(C(=O)N4C[C@@H]5C[C@H]4CO5)cc3Cl)nc3c(OC4(C)CC4)ncnc32)c1` [Example T416, ((1S,4S)-2-oxa-5-azabicyclo[2.2.1]heptan-5-yl)(3-chloro-4-(6-(1-methylcyclopropoxy)-9-((4-methylpyridin-2-yl)methyl)-9H-purin-8-yl)phenyl)methanone] was tested. Which IC50 did it give?
Its IC50 is 50.1 nM.

Which IC50 does the source give for `CC1(Oc2ncnc3c2nc(-c2ccc(OCCCN4CC(O)C4)cc2Cl)n3Cc2cc(Cl)ccn2)CC1` [Example T347, 1-(3-(3-chloro-4-(9-((4-chloropyridin-2-yl)methyl)-6-(1-methylcyclopropoxy)-9H-purin-8-yl)phenoxy)propyl)azetidin-3-ol] here?
The IC50 was 2.51 nM.

For `Cc1ccnc(Cn2c(-c3ccc(N4CC[C@@H](O)C4=O)cc3Cl)nc3c(OC4(C)CC4)ncnc32)c1` [Example T181, (R)-1-(3-chloro-4-(6-(1-methylcyclopropoxy)-9-((4-methylpyridin-2-yl)methyl)-9H-purin-8-yl)phenyl)-3-hydroxypyrrolidin-2-one], which IC50 is on record?
Its IC50 is 6.31 nM.

`Cc1ccnc(Cn2c(-c3ccc(C(=O)N4CC(F)C4)cc3Cl)nc3c(OC4(C)CC4)ncnc32)c1` [Example T153, (3-chloro-4-(6-(1-methylcyclopropoxy)-9-((4-methylpyridin-2-yl)methyl)-9H-purin-8-yl)phenyl)(3-fluoroazetidin-1-yl)methanone] was tested. Which IC50 did it give?
Its IC50 is 20 nM.

For `C[C@@H](CCOc1cccc(-c2nc3c(OC4(C)CC4)ncnc3n2Cc2cc(Cl)ccc2C#N)c1Cl)C(=O)O` [Example U87, (S)-4-(2-chloro-3-(9-(5-chloro-2-cyanobenzyl)-6-(1-methylcyclopropoxy)-9H-purin-8-yl)phenoxy)-2-methylbutanoic acid], which IC50 is on record?
Its IC50 is 3.98 nM.

Which IC50 does the source give for `Cc1ccnc(Cn2c(-c3ccc(O[C@H]4CCOC4)cc3Cl)nc3c(OC4(C)CC4)ncnc32)c1` [Example T196, (S)-8-(2-chloro-4-((tetrahydrofuran-3-yl)oxy)phenyl)-6-(1-methylcyclopropoxy)-9-((4-methylpyridin-2-yl)methyl)-9H-purine] here?
Its IC50 is 3.98 nM.

For `Cc1ccnc(Cn2c(-c3ccc(OCCN4CC5(CCN5)C4)cc3Cl)nc3c(OC4(C)CC4)ncnc32)c1` [Example T587, 8-(4-(2-(1,6-diazaspiro[3.3]heptan-6-yl)ethoxy)-2-chlorophenyl)-6-(1-methylcyclopropoxy)-9-((4-methylpyridin-2-yl)methyl)-9H-purine], which IC50 is on record?
The IC50 was 5.01 nM.

How did the IC50 turn out when `Cc1ccnc(Cn2c(-c3ccc(CCN4CCNCC4)cc3Cl)nc3c(OC4(C)CC4)ncnc32)c1` [Example T528, 8-(2-chloro-4-(2-(piperazin-1-yl)ethyl)phenyl)-6-(1-methylcyclopropoxy)-9-((4-methylpyridin-2-yl)methyl)-9H-purine] was run?
Its IC50 is 3.98 nM.

With `Cc1ncc(Cn2c(-c3ccc(OCCN4CCNCC4)cc3Cl)nc3c(OC4(C)CC4)ncnc32)s1` [Example T249, 5-((8-(2-chloro-4-(2-(piperazin-1-yl)ethoxy)phenyl)-6-(1-methylcyclopropoxy)-9H-purin-9-yl)methyl)-2-methylthiazole] as the compound, how does the IC50 read?
Its IC50 is 20 nM.

For `Cc1cnc(Cn2c(-c3ccc(OCCCN4CCCC4)cc3Cl)nc3c(OC4(C)CC4)ncnc32)s1` [Example T388, 2-((8-(2-chloro-4-(3-(pyrrolidin-1-yl)propoxy)phenyl)-6-(1-methylcyclopropoxy)-9H-purin-9-yl)methyl)-5-methylthiazole], which IC50 is on record?
Its IC50 is 5.01 nM.
